Our source for the Activity values is ChEMBL document CHEMBL3227964 (J Med Chem, 1979).

The test system of data set [1] is Escherichia coli. Description: Antimicrobial activity against Escherichia coli AB1157 assessed as reduction in colony formation at 1 mM. In kind it is organism-based. The note with it: in vivo, 1000 µM.
The test system of data set [2] is Escherichia coli. The experiment in a line: Induction of sensitization to irradiation in Escherichia coli AB1157 under oxic condition assessed as reduction in colony formation at 1 mM measured after irradiation. In kind it is organism-based. Particulars: in vivo, 1000 µM.

Molecules are shown by their SMILES.

`O=[N+]([O-])c1cn(CCO)c([N+](=O)[O-])n1`: the Activity result in the data set on Escherichia coli [1] is “Non-toxic”; in the data set with Escherichia coli [2], “Toxic”.
